For 1 molecule, IC50 results are on record in US20240358684A1, “METHOD FOR ENHANCING INNATE IMMUNE RESPONSE” (Kyoto University, priority 2021, published 2024).

By UniProt entry, the sequences of proteins in these tests, tags left out. Where a name states a change or a piece, a line headed by the entry shows the natural chain unless it says otherwise.
UniProt P49761: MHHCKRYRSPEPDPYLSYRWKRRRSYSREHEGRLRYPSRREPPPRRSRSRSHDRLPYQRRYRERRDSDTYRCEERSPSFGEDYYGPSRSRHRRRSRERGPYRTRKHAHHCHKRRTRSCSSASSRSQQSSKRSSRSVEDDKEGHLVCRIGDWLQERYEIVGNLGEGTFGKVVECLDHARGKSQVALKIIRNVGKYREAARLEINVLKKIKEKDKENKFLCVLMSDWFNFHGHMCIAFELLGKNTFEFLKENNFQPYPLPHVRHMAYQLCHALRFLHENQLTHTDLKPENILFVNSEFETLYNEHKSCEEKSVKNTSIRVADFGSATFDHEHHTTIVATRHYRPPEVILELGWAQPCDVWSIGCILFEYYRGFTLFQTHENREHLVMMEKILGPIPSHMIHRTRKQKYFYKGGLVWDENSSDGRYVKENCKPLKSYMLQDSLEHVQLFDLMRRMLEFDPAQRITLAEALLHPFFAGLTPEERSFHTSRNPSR

The target of the test is T1, CLK3 (Homo sapiens, UniProt P49761).
T1 construct: Enzyme activity was measured with off-chip mobility shift assay using purified CLK protein
The experiment in a line: Inhibition confirmation test for CLK (off-chip mobility shift assay). The format is biochemical. The conditions noted are these: ATP 75 μM; read-out: CLK3 inhibitory activity (IC50 value). The procedure:
Enzyme activity was measured with off-chip mobility shift assay using purified CLK protein. DYRKtide-F peptide (1 μM) was used as a substrate, and a composition of a reaction solution used was as follows (20 mM HEPES (pH7.5), 0.01% Triton X-100, 1 mM DT7, 1% DMSO, and ATP (10 μM for CLK1, 150 μM for CLK2, and 75 μM for CLK3)). The enzyme reaction was performed at room temperature for 1 hour, and the reaction was terminated by adding QuickScout Screening Assist MSA (Carna Biosciences, Inc.). A substrate peptide and a phosphorylated peptide in the enzyme reaction solution were separated and quantified using the LabChip system (Perkin-Elmer, Waltham, MA, USA), and inhibition of CLK was evaluated by calculating a product ratio using the following formula, the substrate peptide peak height (S), and the phosphorylated peptide peak height (P).
(P/(P+S)) • P: product-derived peak • S: substrate-derived peak

In the case of `CCN1/C(=C/C(C)=O)Sc2ccc(OC)cc21` [compound 4, 1-(3-ethyl-5-methoxy-1,3-benzothiazol-2-ylidene)propan-2-one, reference compound], the IC50 (commonly the concentration at which inhibition is half-maximal) is > 3 µM.
